Sequences of proteins named here, by UniProt entry; tags and fusion partners are left off. A change or cut given only in a name is not applied to a line headed by its entry.
UniProt P41279, whole entry, looked up: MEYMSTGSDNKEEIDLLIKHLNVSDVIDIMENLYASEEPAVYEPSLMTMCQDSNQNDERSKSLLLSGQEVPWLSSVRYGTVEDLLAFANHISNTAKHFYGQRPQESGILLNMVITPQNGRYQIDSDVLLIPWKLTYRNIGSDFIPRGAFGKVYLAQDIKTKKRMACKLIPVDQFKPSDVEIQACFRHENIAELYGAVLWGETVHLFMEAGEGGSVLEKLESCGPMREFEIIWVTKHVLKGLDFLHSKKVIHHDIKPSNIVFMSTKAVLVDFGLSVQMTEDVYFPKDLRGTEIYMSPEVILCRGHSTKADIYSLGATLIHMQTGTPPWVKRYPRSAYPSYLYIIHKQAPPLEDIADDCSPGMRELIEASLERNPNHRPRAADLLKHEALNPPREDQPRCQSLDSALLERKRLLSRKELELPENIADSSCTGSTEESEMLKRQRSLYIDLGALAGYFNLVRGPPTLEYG
UniProt P29320: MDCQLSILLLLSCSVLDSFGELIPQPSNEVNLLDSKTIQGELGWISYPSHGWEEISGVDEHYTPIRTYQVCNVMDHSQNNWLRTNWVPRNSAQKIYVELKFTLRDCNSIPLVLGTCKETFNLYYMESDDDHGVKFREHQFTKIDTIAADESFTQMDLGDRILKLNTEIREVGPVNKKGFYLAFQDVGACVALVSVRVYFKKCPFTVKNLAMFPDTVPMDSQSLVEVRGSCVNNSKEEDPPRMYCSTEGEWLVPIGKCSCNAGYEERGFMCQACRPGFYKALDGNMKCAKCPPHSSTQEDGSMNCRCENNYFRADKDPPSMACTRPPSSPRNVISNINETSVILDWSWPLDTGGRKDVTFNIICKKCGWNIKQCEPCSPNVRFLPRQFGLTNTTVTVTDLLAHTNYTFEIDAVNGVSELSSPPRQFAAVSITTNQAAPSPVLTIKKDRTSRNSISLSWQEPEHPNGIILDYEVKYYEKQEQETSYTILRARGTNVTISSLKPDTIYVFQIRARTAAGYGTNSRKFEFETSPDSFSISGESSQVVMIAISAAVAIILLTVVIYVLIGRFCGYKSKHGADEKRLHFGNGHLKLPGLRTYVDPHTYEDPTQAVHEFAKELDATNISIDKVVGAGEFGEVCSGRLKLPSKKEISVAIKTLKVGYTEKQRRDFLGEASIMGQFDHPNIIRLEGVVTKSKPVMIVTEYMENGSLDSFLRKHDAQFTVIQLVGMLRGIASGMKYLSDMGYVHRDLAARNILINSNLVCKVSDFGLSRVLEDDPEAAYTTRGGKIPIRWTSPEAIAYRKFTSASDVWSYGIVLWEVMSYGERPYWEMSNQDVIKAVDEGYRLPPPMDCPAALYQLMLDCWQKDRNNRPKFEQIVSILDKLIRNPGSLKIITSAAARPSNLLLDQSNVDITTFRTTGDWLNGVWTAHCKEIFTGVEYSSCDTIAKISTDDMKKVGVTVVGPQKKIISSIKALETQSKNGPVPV
UniProt Q96GD4, whole entry, looked up: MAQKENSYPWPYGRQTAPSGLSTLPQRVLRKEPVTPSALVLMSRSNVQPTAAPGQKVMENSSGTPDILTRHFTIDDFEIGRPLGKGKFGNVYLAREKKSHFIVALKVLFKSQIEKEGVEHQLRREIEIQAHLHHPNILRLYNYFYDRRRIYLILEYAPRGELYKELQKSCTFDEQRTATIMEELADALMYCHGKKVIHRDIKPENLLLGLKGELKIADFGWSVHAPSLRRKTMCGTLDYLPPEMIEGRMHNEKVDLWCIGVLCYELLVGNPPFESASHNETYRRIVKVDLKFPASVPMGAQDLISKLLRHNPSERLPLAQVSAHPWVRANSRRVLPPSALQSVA
UniProt Q16513: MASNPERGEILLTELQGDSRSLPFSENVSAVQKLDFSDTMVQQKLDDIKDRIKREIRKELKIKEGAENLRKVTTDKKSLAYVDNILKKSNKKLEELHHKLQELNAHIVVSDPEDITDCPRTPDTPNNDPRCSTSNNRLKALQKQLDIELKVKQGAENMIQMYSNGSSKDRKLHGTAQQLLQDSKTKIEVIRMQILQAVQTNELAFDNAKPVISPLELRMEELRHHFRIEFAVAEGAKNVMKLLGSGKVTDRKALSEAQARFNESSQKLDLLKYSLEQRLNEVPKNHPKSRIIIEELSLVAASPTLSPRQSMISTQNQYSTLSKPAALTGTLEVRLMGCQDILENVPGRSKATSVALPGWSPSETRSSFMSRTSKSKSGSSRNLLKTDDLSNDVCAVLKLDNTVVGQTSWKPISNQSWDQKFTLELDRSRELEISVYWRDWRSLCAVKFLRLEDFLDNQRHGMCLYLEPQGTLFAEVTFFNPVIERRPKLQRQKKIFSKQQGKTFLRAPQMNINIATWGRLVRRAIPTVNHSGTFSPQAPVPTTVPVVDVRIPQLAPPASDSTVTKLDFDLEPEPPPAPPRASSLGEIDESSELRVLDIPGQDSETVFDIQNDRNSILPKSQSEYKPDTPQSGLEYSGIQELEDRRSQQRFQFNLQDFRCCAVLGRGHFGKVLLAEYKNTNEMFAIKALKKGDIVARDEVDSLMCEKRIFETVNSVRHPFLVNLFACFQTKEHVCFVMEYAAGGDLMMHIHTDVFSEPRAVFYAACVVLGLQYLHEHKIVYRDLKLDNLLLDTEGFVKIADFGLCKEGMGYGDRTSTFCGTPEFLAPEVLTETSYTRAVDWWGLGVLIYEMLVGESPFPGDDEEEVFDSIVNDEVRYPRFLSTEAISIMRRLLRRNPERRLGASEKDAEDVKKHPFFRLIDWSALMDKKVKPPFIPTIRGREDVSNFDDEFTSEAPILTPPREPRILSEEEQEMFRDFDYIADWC
UniProt O15264: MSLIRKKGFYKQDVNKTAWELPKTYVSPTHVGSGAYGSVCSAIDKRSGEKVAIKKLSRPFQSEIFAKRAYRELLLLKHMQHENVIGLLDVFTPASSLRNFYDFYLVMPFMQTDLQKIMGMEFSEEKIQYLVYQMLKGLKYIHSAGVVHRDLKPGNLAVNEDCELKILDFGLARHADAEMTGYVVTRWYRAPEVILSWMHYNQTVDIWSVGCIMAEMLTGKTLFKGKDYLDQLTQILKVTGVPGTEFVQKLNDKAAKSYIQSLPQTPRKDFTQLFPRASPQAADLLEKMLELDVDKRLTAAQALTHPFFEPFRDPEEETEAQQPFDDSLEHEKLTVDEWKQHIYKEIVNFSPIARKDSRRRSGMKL
UniProt P30530, whole entry, looked up: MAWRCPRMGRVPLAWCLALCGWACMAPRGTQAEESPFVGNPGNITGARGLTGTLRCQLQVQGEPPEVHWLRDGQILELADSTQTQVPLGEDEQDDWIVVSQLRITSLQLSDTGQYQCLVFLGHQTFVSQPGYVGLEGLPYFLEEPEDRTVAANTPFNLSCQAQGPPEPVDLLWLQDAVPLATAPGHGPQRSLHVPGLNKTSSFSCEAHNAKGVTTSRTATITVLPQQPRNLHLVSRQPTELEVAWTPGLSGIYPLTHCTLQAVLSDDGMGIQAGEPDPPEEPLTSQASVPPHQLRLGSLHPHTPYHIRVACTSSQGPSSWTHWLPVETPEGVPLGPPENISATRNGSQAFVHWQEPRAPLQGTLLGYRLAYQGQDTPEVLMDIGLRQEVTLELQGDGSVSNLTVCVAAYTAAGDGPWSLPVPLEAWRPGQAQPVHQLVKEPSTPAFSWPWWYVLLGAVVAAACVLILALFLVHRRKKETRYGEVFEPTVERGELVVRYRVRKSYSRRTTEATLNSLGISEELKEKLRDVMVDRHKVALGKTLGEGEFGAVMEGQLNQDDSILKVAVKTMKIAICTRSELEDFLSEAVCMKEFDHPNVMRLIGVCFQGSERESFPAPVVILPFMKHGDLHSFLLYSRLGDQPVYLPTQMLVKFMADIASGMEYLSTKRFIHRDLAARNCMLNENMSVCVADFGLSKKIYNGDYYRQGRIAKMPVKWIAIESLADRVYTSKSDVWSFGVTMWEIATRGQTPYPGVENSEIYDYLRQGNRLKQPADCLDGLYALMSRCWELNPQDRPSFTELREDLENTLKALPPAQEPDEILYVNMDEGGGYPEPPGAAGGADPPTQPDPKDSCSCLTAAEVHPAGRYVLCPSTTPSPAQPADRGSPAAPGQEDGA
UniProt P53350, whole entry, looked up: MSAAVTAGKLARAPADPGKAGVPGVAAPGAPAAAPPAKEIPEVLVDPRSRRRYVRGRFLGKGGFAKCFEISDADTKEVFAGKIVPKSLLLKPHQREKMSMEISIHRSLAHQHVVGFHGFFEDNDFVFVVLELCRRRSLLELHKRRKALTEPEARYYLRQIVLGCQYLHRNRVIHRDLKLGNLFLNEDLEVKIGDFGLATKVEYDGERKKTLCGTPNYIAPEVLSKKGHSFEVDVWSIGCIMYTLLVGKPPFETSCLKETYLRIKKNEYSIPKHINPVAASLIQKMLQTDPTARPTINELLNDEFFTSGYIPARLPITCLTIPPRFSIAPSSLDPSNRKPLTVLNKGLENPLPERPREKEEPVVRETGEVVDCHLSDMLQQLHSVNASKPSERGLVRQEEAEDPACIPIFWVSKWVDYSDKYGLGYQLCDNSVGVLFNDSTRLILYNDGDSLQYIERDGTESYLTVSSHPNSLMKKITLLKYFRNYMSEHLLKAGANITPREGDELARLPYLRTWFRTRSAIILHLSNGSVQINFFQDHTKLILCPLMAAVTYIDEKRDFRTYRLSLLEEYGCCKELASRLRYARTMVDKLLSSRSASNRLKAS
UniProt Q16644, whole entry, looked up: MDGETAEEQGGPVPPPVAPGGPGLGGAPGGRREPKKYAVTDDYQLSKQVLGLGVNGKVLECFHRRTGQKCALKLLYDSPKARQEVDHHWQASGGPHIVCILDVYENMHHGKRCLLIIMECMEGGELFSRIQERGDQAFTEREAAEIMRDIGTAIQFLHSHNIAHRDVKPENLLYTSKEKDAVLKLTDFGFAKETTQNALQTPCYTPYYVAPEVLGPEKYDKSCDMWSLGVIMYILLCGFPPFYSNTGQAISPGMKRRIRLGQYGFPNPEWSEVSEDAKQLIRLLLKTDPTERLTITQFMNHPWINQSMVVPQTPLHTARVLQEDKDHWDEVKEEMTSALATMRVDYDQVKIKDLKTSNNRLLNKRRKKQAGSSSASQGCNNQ
UniProt P49841: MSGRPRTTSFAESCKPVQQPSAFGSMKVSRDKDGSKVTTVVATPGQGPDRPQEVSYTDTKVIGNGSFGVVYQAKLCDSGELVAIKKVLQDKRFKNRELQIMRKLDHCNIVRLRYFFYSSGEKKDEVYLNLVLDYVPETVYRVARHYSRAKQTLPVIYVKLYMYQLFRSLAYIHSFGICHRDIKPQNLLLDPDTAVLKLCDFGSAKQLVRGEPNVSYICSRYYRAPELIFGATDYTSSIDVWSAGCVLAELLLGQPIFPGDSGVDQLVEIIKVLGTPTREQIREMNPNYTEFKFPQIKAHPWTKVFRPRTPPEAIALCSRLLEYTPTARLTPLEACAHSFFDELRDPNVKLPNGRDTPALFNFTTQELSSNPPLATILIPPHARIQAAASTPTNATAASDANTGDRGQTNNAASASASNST
UniProt P32298, whole entry, looked up: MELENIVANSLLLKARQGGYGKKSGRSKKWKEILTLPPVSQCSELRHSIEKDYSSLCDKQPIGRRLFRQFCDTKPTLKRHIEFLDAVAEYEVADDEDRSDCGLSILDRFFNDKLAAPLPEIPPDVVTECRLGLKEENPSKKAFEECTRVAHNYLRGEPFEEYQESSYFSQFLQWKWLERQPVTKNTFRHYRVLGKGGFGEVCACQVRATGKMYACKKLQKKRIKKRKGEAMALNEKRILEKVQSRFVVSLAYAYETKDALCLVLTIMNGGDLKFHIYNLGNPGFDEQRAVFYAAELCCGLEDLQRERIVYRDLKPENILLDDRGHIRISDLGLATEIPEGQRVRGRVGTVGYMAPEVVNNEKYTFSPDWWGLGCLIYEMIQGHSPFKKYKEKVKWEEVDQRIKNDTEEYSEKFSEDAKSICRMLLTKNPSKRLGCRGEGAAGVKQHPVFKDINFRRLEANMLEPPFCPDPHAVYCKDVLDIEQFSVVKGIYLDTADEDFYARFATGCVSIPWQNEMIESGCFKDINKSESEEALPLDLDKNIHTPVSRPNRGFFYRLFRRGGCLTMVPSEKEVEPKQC
UniProt P36896: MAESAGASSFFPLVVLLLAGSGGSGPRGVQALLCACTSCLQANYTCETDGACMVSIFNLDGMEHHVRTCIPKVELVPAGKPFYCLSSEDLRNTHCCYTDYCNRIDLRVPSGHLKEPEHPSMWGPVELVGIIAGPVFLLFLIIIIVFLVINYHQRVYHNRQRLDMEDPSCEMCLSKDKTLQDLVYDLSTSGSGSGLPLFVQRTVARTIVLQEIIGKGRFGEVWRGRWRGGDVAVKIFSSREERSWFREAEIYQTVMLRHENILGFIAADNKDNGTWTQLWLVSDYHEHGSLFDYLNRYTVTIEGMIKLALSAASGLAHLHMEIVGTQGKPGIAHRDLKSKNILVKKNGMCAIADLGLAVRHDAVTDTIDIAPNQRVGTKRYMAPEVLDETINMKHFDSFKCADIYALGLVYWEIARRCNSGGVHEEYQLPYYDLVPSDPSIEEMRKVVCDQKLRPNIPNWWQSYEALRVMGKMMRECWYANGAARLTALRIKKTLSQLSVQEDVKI

According to the kinase profiling compilation of Christmann-Franck et al. (2016):

What was measured:
Assay in all cases: radiometric filter-binding kinase assay, Kinase HotSpot
Conditions in all cases: compound 0.5 µM; ATP 10 µM
MAP3K8 (human) = MAP3K8 (human) (UniProt P41279)
LCK (human) = LCK (human) (UniProt P06239)
DAPK2 (human) = DAPK2 (human) (UniProt Q9UIK4)
EPHA3 (human) = EPHA3 (human) (UniProt P29320)
EGFR (human) = EGFR (human) (UniProt P00533)
AURKB (human) = AURKB (human) (UniProt Q96GD4)
SYK (human) = SYK (human) (UniProt P43405)
ROS1 (human) = ROS1 (human) (UniProt P08922)
RAF1 (human) = RAF1 (human) (UniProt P04049)
NTRK2 (human) = NTRK2 (human) (UniProt Q16620)
ERBB4 (human) = ERBB4 (human) (UniProt Q15303)
STK11 (human) = STK11 (human) (UniProt Q15831)
EPHB2 (human) = EPHB2 (human) (UniProt P29323)
MARK4 (human) = MARK4 (human) (UniProt Q96L34)
PKN2 (human) = PKN2 (human) (UniProt Q16513)
PTK2B (human) = PTK2B (human) (UniProt Q14289)
PTK2 (human) = PTK2 (human) (UniProt Q05397)
MAPKAPK5 (human) = MAPKAPK5 (human) (UniProt Q8IW41)
PASK (human) = PASK (human) (UniProt Q96RG2)
ADRBK2 (human) = ADRBK2 (human) (UniProt P35626)
CHEK2 (human) = CHEK2 (human) (UniProt O96017)
STK3 (human) = STK3 (human) (UniProt Q13188)
DDR2 (human) = DDR2 (human) (UniProt Q16832)
IRAK4 (human) = IRAK4 (human) (UniProt Q9NWZ3)
TGFBR2 (human) = TGFBR2 (human) (UniProt P37173)
CAMK2A (human) = CAMK2A (human) (UniProt Q9UQM7)
MAPK13 (human) = MAPK13 (human) (UniProt O15264)
PAK3 (human) = PAK3 (human) (UniProt O75914)
RET (human) = RET (human) (UniProt P07949)
AXL (human) = AXL (human) (UniProt P30530)
PLK1 (human) = PLK1 (human) (UniProt P53350)
LRRK2 (human) = LRRK2 (human) (UniProt Q5S007)
INSRR (human) = INSRR (human) (UniProt P14616)
MAPKAPK3 (human) = MAPKAPK3 (human) (UniProt Q16644)
NEK1 (human) = NEK1 (human) (UniProt Q96PY6)
GSK3B (human) = GSK3B (human) (UniProt P49841)
GRK4 (human) = GRK4 (human) (UniProt P32298)
KIT (human) = KIT (human) (UniProt P10721)
MAPK1 (human) = MAPK1 (human) (UniProt P28482)
FES (human) = FES (human) (UniProt P07332)
STK25 (human) = STK25 (human) (UniProt O00506)
ACVR1B (human) = ACVR1B (human) (UniProt P36896)

In the case of `O=C1c2ccccc2-[n+]2ccc3c([nH]c4ccccc43)c21`, the residual activity (MAP3K8 (human)) is reported as 84.9%, the residual activity (LCK (human)) is reported as 91.2% and the residual activity (DAPK2 (human)) is reported as 96.7%. For the same compound, the residual activity (EPHA3 (human)) was 110%, the residual activity (EGFR (human)) was 96.8% and the residual activity (AURKB (human)) was 87.9%. For the same compound, the residual activity (SYK (human)) was 92.5%, the residual activity (ROS1 (human)) was 95.5% and the residual activity (RAF1 (human)) was 92.9%. The residual activity (NTRK2 (human)) was 74.4%, the residual activity (ERBB4 (human)) was 93.6% and the residual activity (STK11 (human)) was 107%. For the same compound, the residual activity (EPHB2 (human)) was 85.4%, the residual activity (MARK4 (human)) was 98.7% and the residual activity (PKN2 (human)) was 102%. The residual activity (PTK2B (human)) was 92.7%, the residual activity (PTK2 (human)) was 103% and the residual activity (MAPKAPK5 (human)) was 90%. The residual activity (PASK (human)) was 93.3%, the residual activity (ADRBK2 (human)) was 99.7% and the residual activity (CHEK2 (human)) was 91.8%. For the same compound, the residual activity (STK3 (human)) was 96.7%, the residual activity (DDR2 (human)) was 95.4% and the residual activity (IRAK4 (human)) was 90.8%. It also gave a residual activity (TGFBR2 (human)) of 110%, a residual activity (CAMK2A (human)) of 114% and a residual activity (MAPK13 (human)) of 107%. The residual activity (PAK3 (human)) was 98.2%, the residual activity (RET (human)) was 102% and the residual activity (AXL (human)) was 81.1%. It also gave a residual activity (PLK1 (human)) of 75.9%, a residual activity (LRRK2 (human)) of 70.1% and a residual activity (INSRR (human)) of 94.1%. It also gave a residual activity (MAPKAPK3 (human)) of 99.1%, a residual activity (NEK1 (human)) of 79.8% and a residual activity (GSK3B (human)) of 112%. For the same compound, the residual activity (GRK4 (human)) was 92.1%, the residual activity (KIT (human)) was 86.8% and the residual activity (MAPK1 (human)) was 119%. It also gave a residual activity (FES (human)) of 96.5%, a residual activity (STK25 (human)) of 103% and a residual activity (ACVR1B (human)) of 99.9%.
Compound `COc1cc(OC)c(/C=C2\C(=O)Nc3ccccc32)c(OC)c1` has a residual activity (MAP3K8 (human)) of 98.4%, a residual activity (LCK (human)) of 93.4% and a residual activity (DAPK2 (human)) of 97.4%. For the same compound, the residual activity (EPHA3 (human)) was 93.9%, the residual activity (EGFR (human)) was 96.5% and the residual activity (AURKB (human)) was 89.5%. It also gave a residual activity (SYK (human)) of 86.4%, a residual activity (ROS1 (human)) of 94.4% and a residual activity (RAF1 (human)) of 95.4%. The residual activity (NTRK2 (human)) was 105%, the residual activity (ERBB4 (human)) was 101% and the residual activity (STK11 (human)) was 105%. The residual activity (EPHB2 (human)) was 86.2%, the residual activity (MARK4 (human)) was 94.4% and the residual activity (PKN2 (human)) was 83.8%. The residual activity (PTK2B (human)) was 100%, the residual activity (PTK2 (human)) was 102% and the residual activity (MAPKAPK5 (human)) was 104%. The residual activity (PASK (human)) was 92.9%, the residual activity (ADRBK2 (human)) was 103% and the residual activity (CHEK2 (human)) was 98.1%. For the same compound, the residual activity (STK3 (human)) was 115%, the residual activity (DDR2 (human)) was 98.3% and the residual activity (IRAK4 (human)) was 125%. The residual activity (TGFBR2 (human)) was 126%, the residual activity (CAMK2A (human)) was 97% and the residual activity (MAPK13 (human)) was 99.1%. For the same compound, the residual activity (PAK3 (human)) was 101%, the residual activity (RET (human)) was 107% and the residual activity (AXL (human)) was 90.6%. For the same compound, the residual activity (PLK1 (human)) was 100%, the residual activity (LRRK2 (human)) was 92.2% and the residual activity (INSRR (human)) was 94.9%. The residual activity (MAPKAPK3 (human)) was 99.5%, the residual activity (NEK1 (human)) was 102% and the residual activity (GSK3B (human)) was 94.3%. The residual activity (GRK4 (human)) was 98.2%, the residual activity (KIT (human)) was 101% and the residual activity (MAPK1 (human)) was 81%. It also gave a residual activity (FES (human)) of 97.1%, a residual activity (STK25 (human)) of 87.5% and a residual activity (ACVR1B (human)) of 101%.
